# Target: T1, GluR3 receptor on normal human T-cells (Homo sapiens, UniProt P42263)
# Amino acid sequences for entries named in this document (tags omitted). Residues count along the entry.
# UniProt P42263, 29-894: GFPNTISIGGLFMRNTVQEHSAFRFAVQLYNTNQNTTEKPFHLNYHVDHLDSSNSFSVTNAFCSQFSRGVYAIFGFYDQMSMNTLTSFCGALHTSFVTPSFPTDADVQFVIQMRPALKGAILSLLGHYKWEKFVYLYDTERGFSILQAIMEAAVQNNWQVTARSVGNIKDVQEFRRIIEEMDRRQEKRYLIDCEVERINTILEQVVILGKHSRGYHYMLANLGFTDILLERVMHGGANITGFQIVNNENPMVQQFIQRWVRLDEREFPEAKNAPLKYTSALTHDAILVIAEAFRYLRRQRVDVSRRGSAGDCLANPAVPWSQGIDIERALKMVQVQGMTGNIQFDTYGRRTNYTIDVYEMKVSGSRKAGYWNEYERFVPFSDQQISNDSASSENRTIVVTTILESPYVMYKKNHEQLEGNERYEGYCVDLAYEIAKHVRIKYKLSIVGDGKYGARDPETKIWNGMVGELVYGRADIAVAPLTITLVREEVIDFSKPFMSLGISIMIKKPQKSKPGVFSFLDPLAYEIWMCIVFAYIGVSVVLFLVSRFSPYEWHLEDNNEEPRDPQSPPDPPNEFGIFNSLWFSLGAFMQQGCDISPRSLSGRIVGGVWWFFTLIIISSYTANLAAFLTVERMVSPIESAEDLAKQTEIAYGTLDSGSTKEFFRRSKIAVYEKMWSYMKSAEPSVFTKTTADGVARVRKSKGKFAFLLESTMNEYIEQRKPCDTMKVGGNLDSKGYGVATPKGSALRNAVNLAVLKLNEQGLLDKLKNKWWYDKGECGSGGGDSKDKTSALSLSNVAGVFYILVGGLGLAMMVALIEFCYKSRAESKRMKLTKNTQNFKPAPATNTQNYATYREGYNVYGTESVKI
# T1 construct: confirmed the surface expression of the GluR3 receptor on human T-cells; endogenous in cells; host or cells: normal human T-cells purified from fresh peripheral blood of healthy donors
# Test: Immunofluorescence staining for surface GluR3 (FACSORT)
# Format: cell-based
# Details: 10^−5 M Glutamate
# Method: FIG. 9 illustrates the inhibition of human T-cell Glutamate receptor expression by Glutamate. Normal human T-cells purified from fresh blood samples were incubated with Glutamate (10^−5 M), and surface GluR3 receptor measured in samples by double immunofluorescence assay at indicated intervals (5-60 minutes). Inhibition of GluR3 expression is expressed as the percentage of GluR3-positive cells from total T-cells, divided by the baseline (Untreated cells, 0 minutes) percentage. Note the rapid, time-dependent inhibition of GluR3 expression with Glutamate, reaching 80% of baseline at 20 minutes.
# Normal human T-cells, isolated from fresh peripheral blood lymphocytes, or antigen-specific mouse T-cells (directed against myelin basic protein 87-99)(Levite M et al Proc Natl Acad Sci USA 1998; 95:12544-49) were subjected to double immunofluorescence staining, using a rat polyclonal anti-human GluR3 antibody, (100 μl of 10-50 μg/ml dilution per 1×10^6 cells/tube; 30 minutes on ice), or normal rat sera for control. The rat polyclonal antibody was purified in our laboratory, from rats immunized with a specific peptide derived from the extracellular domain of the GluR3 (termed GluR3B, a.a. 372-395). The cells were then stained with an FITC-conjugated goat anti-rat IgG (50 μl of 1:100 dilution). […] Fluorescence profiles were recorded in a FACSORT.
compound,measurement,setting,value
N[C@@H](CCC(=O)O)C(=O)O [Glutamate],Surface GluR3 expression relative to baseline (pre-Glutamate value),20 minutes,80%
same,Incubation time of strongest inhibition of surface GluR3 expression,intervals 5-60 minutes,20 min

# Source: patent US20050214217A1, “Methods of and pharmaceutical compositions for modulating T-lymphocyte adhesion, migration, gene expression and function by Glutamate and analogs thereof” (priority 2004, published 2005)
